These results are taken from article PMC4527783 (PLoS ONE, 2015).

The assay relates to NOP receptor (G protein vs β-arrestin 2). The assay is described as follows: Bias factor, NOP/G-protein vs NOP/arrestin. Also noted: species or system human. The following applies: log10 units, N/OFQ as standard unbiased ligand, G protein minus β-arrestin 2; at least 5 independent Emax/EC50 values; 3-parameter fit, unit slope; * p < 0.05.

For the compound `O=C1NCN(c2ccccc2)C12CCN(C1Cc3cccc4cccc1c34)CC2` (stereo not shown), the bias factor ± sem was 1.07 ^·.
